Experimental data from BindingDB's records for doi:10.1021/jm00111a038 (Ici Pharmaceuticals Group, 1991).
pIC50: −log10 of the molar value.

Experiment: Compound was tested for the inhibition of 5-lipoxygenase (5-Lpo) in guinea pig.

SMILES: COC(c1cccc(OCc2ccc3ccccc3c2)c1)c1nccs1 (stereo unspecified)
- pIC50: 4.92
